Values quoted from earlier work, collected in patent US20040097534A1, “Composition for the protection and regeneration of nerve cells containing berberine derivatives” (EUGENBIO INC., priority 2001, published 2004).

Conditions: rat, in vivo; cited from earlier work

In the case of MK-801, the elimination half-life is listed as 1.9 h.
